Measurements: patent publication US20260232826A1, “ANTIBODY-DRUG CONJUGATES AND THEIR USES” (Mablink Bioscience, priority 2022, published 2026)

By UniProt entry, the sequences of proteins in these tests, tags left out. Residues count along the entry.
UniProt P15328, 25-234: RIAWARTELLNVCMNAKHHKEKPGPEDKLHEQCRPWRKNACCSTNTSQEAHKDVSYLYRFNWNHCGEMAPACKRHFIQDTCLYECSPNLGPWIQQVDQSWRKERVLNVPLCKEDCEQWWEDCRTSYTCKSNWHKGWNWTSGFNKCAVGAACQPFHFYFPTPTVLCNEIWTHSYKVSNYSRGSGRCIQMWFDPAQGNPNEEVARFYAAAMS
UniProt P35846, 25-232: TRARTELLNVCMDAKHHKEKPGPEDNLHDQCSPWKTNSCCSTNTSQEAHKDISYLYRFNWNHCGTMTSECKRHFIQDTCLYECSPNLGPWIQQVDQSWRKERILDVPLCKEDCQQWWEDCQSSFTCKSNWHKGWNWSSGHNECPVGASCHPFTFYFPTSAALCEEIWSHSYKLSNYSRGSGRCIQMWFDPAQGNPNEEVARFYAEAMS

B1: F-LALA-VA-EXA (conjugate)
heavy: EVQLVESGGGVVQPGRSLRLSCSASGFTFSGYGLSWVRQAPGKGLEWVAMISSGGSYTYYADSVKGRFAISRDNAKNTLFLQMDSLRPEDTGVYFCARHGDDPAWFAYWGQGTPVTVSSASTKGPSVFPLAPSSKSTSGGTAALGCLVKDYFPEPVTVSWNSGALTSGVHTFPAVLQSSGLYSLSSVVTVPSSSLGTQTYICNVNHKPSNTKVDKKV[gap - human IgG1 Fc with changes]
light: DIQLTQSPSSLSASVGDRVTITCSVSSSISSNNLHWYQQKPGKAPKPWIYGTSNLASGVPSRFSGSGSGTDYTFTISSLQPEDIATYYCQQWSSYPYMYTFGQGTKVEIKRTVAAPSVFIFPPSDEQLKSGTASVVCLLNNFYPREAKVQWKVDNALQSGNSQESVTEQDSKDSTYSLSSTLTLSKADYEKHKVYACEVTHQGLSSPVTKSFNRGEC
modifications: N-methyl
B2: M-SORAV (conjugate)
heavy: QVQLVQSGAEVVKPGASVKISCKASGYTFTGYFMNWVKQSPGQSLEWIGRIHPYDGDTFYNQKFQGKATLTVDKSSNTAHMELLSLTSEDFAVYYCTRYDGSRAMDYWGQGTTVTVSSASTKGPSVFPLAPSSKSTSGGTAALGCLVKDYFPEPVTVSWNSGALTSGVHTFPAVLQSSGLYSLSSVVTVPSSSLGTQTYICNVNHKPSNTKVDKKV[gap - human IgG1 Fc]
light: DIVLTQSPLSLAVSLGQPAIISCKASQSVSFAGTSLMHWYHQKPGQQPRLLIYRASNLEAGVPDRFSGSGSKTDFTLTISPVEAEDAATYYCQQSREYPYTFGGGTKLEIKRTVAAPSVFIFPPSDEQLKSGTASVVCLLNNFYPREAKVQWKVDNALQSGNSQESVTEQDSKDSTYSLSSTLTLSKADYEKHKVYACEVTHQGLSSPVTKSFNRGEC

Columns and labels:
[1] = target: T1, recombinant human FRα protein (Homo sapiens, UniProt P15328); experiment: Recombinant FRα-binding affinity by ELISA (human); conditions: FIG. 4A/4B
T1 construct: purchased Sino Biological 11241-H08H
Protocol: Sandwich ELISA assays are performed using 96-well high-binding ELISA plates (Corning Inc., New York, NY, USA, Cat #3590). Plates are coated using 100 µL/well of recombinant human FRα protein (Sino Biological cat #11241-H08H) in PBS (pH 7.4) at 2 μg/mL and incubated overnight at 4° C. After 2 washes with PBS-T (PBS+0.05% Tween-20), the plates are blocked with 200 μL/well of incubation buffer (PBS-T+0.1% BSA) for 1 h at room temperature. The plates are washed 4 times with PBS-T, and 100 μL of a threefold dilution series of tested compound (antibody or antibody-drug conjugate) is added. Then, the plates are incubated for 2 h at room temperature in the dark. After 5 washes with PBS-T, plates are incubated 1 h at room temperature with 100 μL/well of a goat anti-human IgG (H+L) HRP conjugated antibody (Jackson Immunoresearch cat #109-035-088), previously diluted 1:250000 in incubation buffer. […] Peroxidase activity is stopped with 0.18M H2SO4 and absorbance is read at 450 nm (reference wavelength 650 nm) using a Thermo Scientific MultiSkan EX microplate reader. […]
Sandwich ELISA assays were performed using 96-well high-binding ELISA plates (Corning Inc., New York, NY, USA, Cat #3590). […] Peroxidase activity was stopped with 0.18M H2SO4 and absorbance was read at 450 nm (reference wavelength 650 nm) using a Thermo Scientific MultiSkan EX microplate reader. […]

[2] = target: T2, recombinant mouse FRα protein (Mus musculus, UniProt P35846); experiment: Recombinant FRα-binding by ELISA (mouse); conditions: FIG. 4B
T2 construct: purchased Sino Biological 50573-M08H
Protocol: Sandwich ELISA assays were performed using 96-well high-binding ELISA plates (Corning Inc., New York, NY, USA, Cat #3590). Plates were coated using 100 μL/well of recombinant human FRα protein (Sino Biological cat #11241-H08H); recombinant cynomolgus FRα protein (Sino Biological cat #90950-C08H); recombinant rat FRα protein (Sino Biological cat #81073-R08H) or recombinant mouse FRα protein (Sino Biological cat #50573-M08H) in PBS (pH 7.4) at 2 μg/mL and incubated overnight at 4° C. After 2 washes with PBS-T (PBS+0.05% Tween-20), the plates were blocked with 200 μL/well of incubation buffer (PBS-T+0.1% BSA) for 1 h at room temperature. The plates were washed 4 times with PBS-T, and 100 μL of a threefold dilution series of tested compound (antibody or antibody-drug conjugate) was added. Then, the plates were incubated for 2 h at room temperature in the dark. After 5 washes with PBS-T, plates were incubated 1 h at room temperature with 100 μL/well of a goat anti-human IgG (H+L) HRP conjugated antibody (Jackson Immunoresearch cat #109-035-088), previously diluted 1:250000 in incubation buffer. After 5 washes with PBS-T, TMB substrate solution (Thermo-Fisher cat #N301) was added. Peroxidase activity was stopped with 0.18M H2SO4 and absorbance was read at 450 nm (reference wavelength 650 nm) using a Thermo Scientific MultiSkan EX microplate reader. […]

IGROV-1 cancer model = experiment: In vivo efficacy and tumor re-implantation challenge, IGROV-1 xenograft; set-up: species or system SCID mice; conditions: group treated at 12 mg/kg IV once, re-implanted at day 94
Excerpt: Four to five-week-old female CB-17 severe combined immunodeficient (SCID) mice are obtained and quarantined for 7 days prior to study initiation. Mice are inoculated subcutaneously with cells (5-10×10^6 cells per mouse) resuspended in PBS (OV-90, SW-620, KB, BT-474 cell lines) or 50% BD Matrigel (Corning®) in PBS (PA-1, IGROV-1, OVCAR-3, NCI-H2110 cell lines). When average tumor volume reached about 120-150 mm^3 mice are randomized (typically 7 mice per group) and treated by a single (unless stated otherwise) intravenous injection of PBS (negative control) or investigated antibody-drug conjugate. Tumor volumes are measured every 3-5 days using a caliper device (length×width) and calculated using the following formula V=4/3×π×R3, where R represents the radius. Mice are sacrificed when the tumor volume exceeded 1500 mm^3 or in case of ulceration of the tumor.
Four to five-week-old female CB-17 severe combined immunodeficient (SCID) mice were obtained from Janvier labs (Le Genest-Saint-Isle, France) and quarantined for 7 days prior to study initiation. […] Tumor volumes were measured every 3-5 days using a caliper device (length×width) and calculated using the following formula V=4/3×π×R^3, where R represents the radius. […]

Molecule | recombinant human FRα binding (ELISA), in words [1] | mouse recombinant FRα binding (ELISA) [2] | tumor regrowth rechallenge (re-implantation of IGROV-1 cells) (IGROV-1 cancer model)
B1 | binds equally | does not bind | no tumor growth was observed after re-implantation
B2 | No significant loss of binding | – | –
